Source: US11016100B2, “Methods for identifying modulators of ion channels” (X-Body, Inc., priority 2007, dated 2021)

Sequences of proteins named here, by UniProt entry; tags and fusion partners are left off. A change or cut given only in a name is not applied to a line headed by its entry.
UniProt Q12809: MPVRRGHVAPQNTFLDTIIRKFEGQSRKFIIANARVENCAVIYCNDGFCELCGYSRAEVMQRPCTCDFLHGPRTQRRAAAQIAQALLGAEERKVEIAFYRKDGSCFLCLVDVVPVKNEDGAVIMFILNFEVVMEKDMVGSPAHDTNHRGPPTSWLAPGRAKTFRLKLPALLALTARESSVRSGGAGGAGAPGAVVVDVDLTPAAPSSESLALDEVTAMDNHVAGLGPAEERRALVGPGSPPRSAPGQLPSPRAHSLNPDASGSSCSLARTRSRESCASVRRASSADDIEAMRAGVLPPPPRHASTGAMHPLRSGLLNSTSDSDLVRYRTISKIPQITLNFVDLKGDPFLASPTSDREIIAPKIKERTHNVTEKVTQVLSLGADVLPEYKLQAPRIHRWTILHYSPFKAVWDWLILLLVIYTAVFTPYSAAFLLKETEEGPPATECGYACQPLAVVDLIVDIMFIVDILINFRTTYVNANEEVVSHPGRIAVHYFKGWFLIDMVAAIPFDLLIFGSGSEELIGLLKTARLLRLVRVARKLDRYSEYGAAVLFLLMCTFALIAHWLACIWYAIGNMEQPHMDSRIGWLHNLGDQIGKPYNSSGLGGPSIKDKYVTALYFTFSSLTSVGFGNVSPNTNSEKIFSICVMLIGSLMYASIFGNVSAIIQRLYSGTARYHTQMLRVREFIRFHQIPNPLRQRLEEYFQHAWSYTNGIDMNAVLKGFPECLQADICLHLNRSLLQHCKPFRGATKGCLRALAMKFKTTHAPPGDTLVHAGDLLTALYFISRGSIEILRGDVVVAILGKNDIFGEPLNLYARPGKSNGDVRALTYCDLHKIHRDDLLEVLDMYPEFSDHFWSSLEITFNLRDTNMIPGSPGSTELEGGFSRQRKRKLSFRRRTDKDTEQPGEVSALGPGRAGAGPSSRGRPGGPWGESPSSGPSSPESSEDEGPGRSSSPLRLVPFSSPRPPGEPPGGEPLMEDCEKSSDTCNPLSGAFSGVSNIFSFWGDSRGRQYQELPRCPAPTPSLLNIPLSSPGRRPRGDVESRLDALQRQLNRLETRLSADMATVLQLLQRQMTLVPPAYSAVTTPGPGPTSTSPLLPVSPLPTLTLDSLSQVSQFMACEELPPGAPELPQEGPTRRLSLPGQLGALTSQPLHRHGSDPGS

Target: human ether-a-go-go (hERG) potassium channel (Homo sapiens, UniProt Q12809)

COc1cc(N)c(Cl)cc1C(=O)NC1CCN(CCCOc2ccc(F)cc2)CC1OC (stereo not shown) [Cisapride monohydrate]
specificity of block for hERG potassium ion channels: specific blocker for hERG potassium ion channels
